Here are results for one substance from patent US10961289B2, “Small molecules blocking histone reader domains” (The University of Copenhagen, priority 2015, dated 2021).

The target in the assay is T1, TONSL ARD (Homo sapiens, UniProt Q96HA7).
T1 construct: GST (N); made in house; host or cells: E. coli BL21(DE3)-RIL
T1 sequence (Q96HA7 512-692): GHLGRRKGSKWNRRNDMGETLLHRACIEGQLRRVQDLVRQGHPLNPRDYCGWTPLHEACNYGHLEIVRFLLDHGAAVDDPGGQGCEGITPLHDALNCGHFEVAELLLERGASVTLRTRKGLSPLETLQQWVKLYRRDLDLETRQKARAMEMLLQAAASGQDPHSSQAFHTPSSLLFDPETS
Nature of the assay: ITC of TONSL ARD binding to histone peptides. Particulars: ITC (FIG. 13); for H4K20me1/2 also peptide pull-downs. As to the method: All the ITC titrations were performed on a Microcal ITC 200 calorimeter at 25° C. The peptides of histone H4 (residues 9-25) and its modified peptides K16ac (with acetylation on Lys16), H18W (with His18 mutated to Trp18), H4K20me1 (mono-methylation on Lys20) and H4K20me2 (di-methylation on Lys20), and peptide of histone H3(1-19)K9me1 (mono-methylation on Lys9) were all synthesized at Tufts University Core Facility. The exothermic heat of the reaction was measured by 17 sequential 2.2 μl injections of the peptides (1.41 mM in buffer 20 mM Tris pH 7.5 and 0.5 M NaCl) into 200 μl of the TONSL ARD solution (145 μM in the same buffer), spaced at intervals of 150 s. The data were processed with Microcal Origin software and the curves were fit to a single […] binding model.

For the substance “H3K9me1: peptide of histone H3(1-19)K9me1 (mono-methylation on Lys9) [Example H3K9me1]”, the “binding to TONSL ARD” value is on record as “no binding”.
